Data taken from PMC9257522, “Machine Learning for Discovery of New ADORA Modulators” (Frontiers in Pharmacology, 2022).
Structures can show the parent of a compound that is named as a salt.

Test system: human A2BAR
Assay: Radioligand displacement binding, [3H]DPCPX

For `Fc1ccc([C@@H]2CCNC[C@H]2COc2ccc3c(c2)OCO3)cc1` [Paroxetine, Paroxetine Hydrochloride], which “Inhibition of specific binding, % inhibition at 100 µM, A2B ([3H]DPCPX)” value is on record?
Its value is less than 10%.
